Source: patent publication US9273046B2, “Fused tricyclic compounds as Raf kinase inhibitors” (BeiGene, LTD., priority 2011, dated 2016)

By UniProt entry, the sequences of proteins in these tests, tags left out.
UniProt P04049, whole entry Y340D/Y341D: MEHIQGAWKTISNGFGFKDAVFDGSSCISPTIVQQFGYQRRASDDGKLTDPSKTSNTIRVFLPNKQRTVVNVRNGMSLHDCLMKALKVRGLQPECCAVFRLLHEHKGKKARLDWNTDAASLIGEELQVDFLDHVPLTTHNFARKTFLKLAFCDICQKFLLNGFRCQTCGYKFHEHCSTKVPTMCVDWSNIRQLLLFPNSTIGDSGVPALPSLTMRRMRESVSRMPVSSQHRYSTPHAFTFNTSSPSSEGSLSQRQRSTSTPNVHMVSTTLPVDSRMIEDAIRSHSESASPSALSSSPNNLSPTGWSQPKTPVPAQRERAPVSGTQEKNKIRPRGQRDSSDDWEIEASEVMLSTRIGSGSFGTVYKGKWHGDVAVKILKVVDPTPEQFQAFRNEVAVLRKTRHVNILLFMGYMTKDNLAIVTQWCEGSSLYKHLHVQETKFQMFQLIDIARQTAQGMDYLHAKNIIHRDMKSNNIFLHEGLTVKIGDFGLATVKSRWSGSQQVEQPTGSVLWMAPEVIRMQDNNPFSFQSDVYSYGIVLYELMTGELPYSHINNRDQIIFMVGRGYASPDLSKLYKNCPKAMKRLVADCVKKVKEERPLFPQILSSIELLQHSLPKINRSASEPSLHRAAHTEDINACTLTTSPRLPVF

Molecular target: C-Raf (Y340D/Y341D) (Homo sapiens (Human), UniProt P04049, Y340D/Y341D)
Assay: Raf IC50 assay, time-resolved fluorescence energy transfer (TR-FRET), C-Raf
Type: biochemical
Settings: 0.5 nM C-Raf, 0.1 mM ATP, GST-tagged MEK1 substrate, 60 min preincubation
Method: The assay was carried out in reactions (10 μL) containing 0.0625 nM B-Raf or 0.5 nM C-Raf, 25 mM Tris pH7.4, 10 mM MgCl2, 0.5 mM EGTA, 0.5 mM […], 5 mM beta-glycerophosphate, 0.01% Triton X-100, 2.5 mM DTT, 0.1% BSA, 0.1 mM ATP, 13.7 nM GST-tagged MEK1 (Full-length protein with K97R mutation, recombinant protein purified from bacterial expression system) and 0-5 μM compounds disclosed herein (final concentration of 1% DMSO). The enzyme was incubated with the compounds at room temperature for 60 minutes and the reactions were initiated by the addition of ATP and GST-MEK1. After incubating at room temperature for 60 minutes, an equal volume of stop buffer containing 25 mM Tris pH7.4, 400 mM KF, 50 mM EDTA, 0.01% BSA, 0.01% Triton X-100, 1 test of Eu3+ Cryptate-conjugated rabbit polyclonal antibody anti-Phospho MEK1/2 (Ser217/221) and 1 test of d2-conjugated mouse monoclonal antibody anti-glutathione S-transferase was added to stop the reactions. Plates were sealed and incubated at room temperature for 2 hours, and then the TR-FRET signals were read on BMG PHERAstar FS instrument. The IC50 for each compound was calculated by non linear regression by Graphpad Prism software.

Going from O=C1CCc2c(Oc3ccc4c(c3)C3C(C4)C3c3nc4ccccc4[nH]3)ccnc2N1 (racemic) [Compound 1.1, (±)-exo-5-((1-(1H-benzo[d]imidazol-2-yl)-1,1a,6,6a-tetrahydrocyclopropa[a]inden-3-yl)oxy)-3,4-dihydro-1,8-naphthyridin-2(1H)-one] to Cc1cc(Oc2ccnc3c2CCC(=O)N3)cc2c1OC1C(c3nc4ccc(C(F)(F)F)cc4[nH]3)C21 (racemic) [Compound 2.35, (±)-exo-5-((3-methyl-1-(6-(trifluoromethyl)-1H-benzo[d]imidazol-2-yl)-1a,6b-dihydro-1H-cyclopropa[b]benzofuran-5-yl)oxy)-3,4-dihydro-1,8-naphthyridin-2(1H)-one], the IC50 rises from 1.4 nM to 12 nM (8.6-fold). The first is the more potent here.

First: O=C1CCc2c(Oc3ccc4c(c3)C3C(O4)C3c3nc(C(F)(F)F)c[nH]3)ccnc2N1 (racemic) [Compound 2.33, (±)-exo-5-((1-(4-(trifluoromethyl)-1H-imidazol-2-yl)-1a,6b-dihydro-1H-cyclopropa[b]benzofuran-5-yl)oxy)-3,4-dihydro-1,8-naphthyridin-2(1H)-one]
Second: O=C1CCc2c(Oc3ccc4c(c3)C3C(O4)C3c3nc4cc(C(F)(F)F)ccc4n3CCO)ccnc2N1 (racemic) [Compound 2.34, (±)-exo-5-((1-(1-(2-hydroxyethyl)-5-(trifluoromethyl)-1H-benzo[d]imidazol-2-yl)-1a,6b-dihydro-1H-cyclopropa[b]benzofuran-5-yl)oxy)-3,4-dihydro-1,8-naphthyridin-2(1H)-one]
The IC50 of the first is 7-fold lower: 0.6 nM for the first, 4.2 nM for the second.

Cc1cc2nc(C3C4Oc5cc(Cl)c(Oc6ccnc7c6CCC(=O)N7)cc5C43)[nH]c2cc1F (racemic) [Compound 2.37, (±)-exo-5-((4-chloro-1-(6-fluoro-5-methyl-1H-benzo[d]imidazol-2-yl)-1a,6b-dihydro-1H-cyclopropa[b]benzofuran-5-yl)oxy)-3,4-dihydro-1,8-naphthyridin-2(1H)-one] and FC(F)(F)c1ccc2nc(C3C4Oc5ccc(Oc6ncnc7[nH]cnc67)cc5C43)[nH]c2c1 (racemic) [Compound 3.5, (±)-exo-6-((1-(6-(trifluoromethyl)-1H-benzo[d]imidazol-2-yl)-1a,6b-dihydro-1H-cyclopropa[b]benzofuran-5-yl)oxy)-9H-purine] are within 1.5-fold of each other in IC50: 23 nM for the first, 20 nM for the second.
